The list shows a part of the results, in another mix than the full data. Inconclusive results are not listed. Active and inactive are the calls of the source. Calls come from the whole dose curve; as a rule, active = well fitted inhibition curve with a large enough effect; inconclusive = small, poorly fitted or top-dose-only effect; inactive = no such curve, though single readings can be large or run the other way.
Biological target: Regulator of G-protein signaling 4 (Homo sapiens) (UniProt P49798)
Test: Inhibitors of Regulator of G Protein Signaling (RGS) 4: qHTS; note: nearly all actives have a fitted effect of over 75% in size
Settings: Transcreener GDP fluorescence polarization, RGS4-accelerated GTP hydrolysis; at 114 µM (top of the series)
Excerpt: G-protein-coupled receptors (GPCRs) are well-established targets for drug discovery and development. Members of the "regulator of G-protein signaling" (RGS)-protein superfamily have recently emerged as critical modulators of specific GPCR signaling pathways. […] Combining specific RGS domain inhibitors with existing GPCR agonists should potentiate cellular responses and could also increase the specificity of action of existing therapeutics. Small molecule modulators of RGS domain activity should also have clinical utility in inhibiting or potentiating the actions of endogenous GPCR agonists. In particular, the diversity of RGS proteins with highly localized and dynamically regulated distributions in the human brain makes this family of proteins attractive targets for pharmacotherapy of central nervous system (CNS) disorders such as Parkinson's disease, schizophrenia, and anxiety. […]
Two microliters of 500nM (2x working concentration) is dispensed into black medium-binding solid-bottom Kalypsys plates. […] An initial fluorescent polarization read (620 nm/688 nm) is performed on the Envision before the plate is incubated for 90 minutes at 30 deg C at a relative humidity of 80%. The plate is once more centrifuged at 1000 RPM for 15 seconds and another Envision fluorescent polarization (620 nm/688 nm) read is carried out.
% is set by controls: 0 for no effect and ±100 for the full control effect.

Protein sequences, listed by entry. Tags and fused reporters are not part of them.
UniProt P49798, whole entry: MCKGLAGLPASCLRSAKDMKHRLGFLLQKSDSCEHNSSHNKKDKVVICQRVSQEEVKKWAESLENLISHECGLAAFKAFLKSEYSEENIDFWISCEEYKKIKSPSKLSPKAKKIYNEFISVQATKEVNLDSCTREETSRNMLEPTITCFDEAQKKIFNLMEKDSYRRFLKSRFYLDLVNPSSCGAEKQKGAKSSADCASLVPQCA

| SMILES | activity change, negative = inhibition |
| --- | --- |
| CCC(=O)N(c1ccccc1)C1(COC)CCN(CCc2cccs2)CC1 | inactive: 8.54% |
| CCC(=O)N(c1ccccc1)C1(COC)CCN(CCn2nnn(CC)c2=O)CC1 | inactive: 0.0872% |
